Experimental data: patent US9814761B2, “Compositions, methods and assays comprising amylin or amlyin analogs for abeta-peptide mediated disorders” (TRUSTEES OF BOSTON UNIVERSITY, priority 2012, dated 2017)

Columns and labels:
[1] = clinical use, pramlintide 30 to 300 mcg tid; NDA21-332; cited from earlier work
plasma Aβ1-40 and Aβ1-42 = assay: pramlintide challenge in two human subjects, plasma Aβ1-40 and Aβ1-42; type: in vivo; conditions: for ratio of plasma Aβ1-42/Aβ1-40: 3 hours post-injection of pramlintide 60 mcg s.c.; for plasma Aβ1-42 after the injection (course): pramlintide 60 mcg subcutaneous, one dose, 5 to 180 minutes
Protocol: (§1) Subcutaneous injections of one dose of pramlintide (60 mcg) was performed in two subjects followed in the research registry of the BU ADC, one control and one probable Alzheimer's disease. Blood was drawn to collect plasma samples before the injection and at 5, 30, 60 and 180 minutes after the injection. Vital signs and blood glucose were monitored at these time points and prior to discharge of the subject from the facility. One hour after the injection, the subjects were offered a standard meal. Plasma Aβ1-40 and Aβ1-42 were measured (Table 2). […] The human results provided herein are encouraging, in part, because the dose of pramlintide (60 mcg) used was only moderate.

serum Aβ1-40 and Aβ1-42 [2] = assay: amylin challenge test: i.p. injection, serum Aβ1-40 and Aβ1-42 by ELISA, Tg2576 mice; type: in vivo; conditions: one Tg2576 mouse (A1); one i.p. pramlintide injection
Protocol: (§2) TgAPP2576 mice (n=5) and control mice (n=5) were used. Intraperitoneal injection of amylin (20 mg/kg) was performed, and blood was drawn and collected at pre-injection, after injection at 5 minutes, 1 hr and 24 hrs. Serum Aβ1-40 and Aβ1-42 were measured using ELISA assay. The results of serum Aβ1-40 and Aβ1-42 for each individual mouse are shown. This experiment has been repeated twice for each mouse and similar results were obtained.
(§3) As shown at FIGS. 3A-3E, amylin injection removes Aβ from the brain into blood in APP transgenic mice. Both the Tg2576 and wild type (WT) mice were used for the amylin challenge test. FIGS. 3A-3B. Amylin (20 mg/kg) was intraperitoneally injected (i.p), and blood was drawn and collected at the time points of pre-injection (the control n=7; Tg2576 n=11), after injection 5 minutes (the control n=7; Tg2576 n=6), 1 hr (the control n=7; Tg2576 n=10) and 24 hrs (the control n=7; Tg2576 n=11). Serum Aβ1-40 and Aβ1-42 were measured by using the ELISA assays. FIGS. 3C-3E. The levels of serum Aβ1-40 and Aβ1-42 at pre-injection of amylin were treated as 1 s, and the relative fold increase after amylin injection at each time point was shown and compared with the pre-injection level by using two-way ANOVA. ***p<0.01; **p<0.05 and *p<0.10.
(§4) FIGS. 6A-6D depict amylin injection and serum Aβ in mice. […] Serum Aβ1-40 and Aβ1-42 were measured by using the ELISA assays. […]

[3] = vital signs and adverse events after pramlintide injection in two human subjects; type: in vivo; conditions: both subjects; pramlintide 60 mcg subcutaneous, one dose
Protocol: as §1

serum Aβ1-40 and Aβ1-42 [4] = assay: amylin challenge test: i.p. injection, serum Aβ1-40 and Aβ1-42 by ELISA, control (wild type) mice; type: in vivo; conditions: two wild type mice (N1 and N2); one i.p. pramlintide injection
Protocol: as §2, §3, §4

[5] = both subjects (control and AD), 3 hours post-injection of pramlintide

CC[C@H](C)[C@H](NC(=O)[C@@H]1CCCN1C(=O)CNC(=O)[C@H](Cc1ccccc1)NC(=O)[C@H](CC(N)=O)NC(=O)[C@H](CC(N)=O)NC(=O)[C@H](CO)NC(=O)[C@H](CO)NC(=O)[C@H](Cc1c[nH]cn1)NC(=O)[C@@H](NC(=O)[C@H](CC(C)C)NC(=O)[C@H](Cc1ccccc1)NC(=O)[C@H](CC(N)=O)NC(=O)[C@H](C)NC(=O)[C@H](CC(C)C)NC(=O)[C@H](CCCNC(=N)N)NC(=O)[C@H](CCC(N)=O)NC(=O)[C@@H](NC(=O)[C@H](C)NC(=O)[C@@H]1CSSC[C@H](NC(=O)[C@@H](N)CCCCN)C(=O)N[C@@H](CC(N)=O)C(=O)N[C@@H]([C@@H](C)O)C(=O)N[C@@H](C)C(=O)N[C@@H]([C@@H](C)O)C(=O)N1)[C@@H](C)O)C(C)C)C(=O)N[C@@H](CC(C)C)C(=O)N1CCC[C@H]1C(=O)N1CCC[C@H]1C(=O)N[C@H](C(=O)N[C@@H](CC(N)=O)C(=O)N[C@H](C(=O)NCC(=O)N[C@@H](CO)C(=O)N[C@@H](CC(N)=O)C(=O)N[C@H](C(=O)N[C@@H](Cc1ccc(O)cc1)C(N)=O)[C@@H](C)O)C(C)C)[C@@H](C)O [pramlintide]
postprandial plasma glucose concentrations [1]: reduce postprandial plasma glucose concentrations safely
ratio of plasma Aβ1-42/Aβ1-40 (plasma Aβ1-40 and Aβ1-42; AD subject): significant increase
plasma Aβ1-42 after the injection (course) (plasma Aβ1-40 and Aβ1-42; AD subject): increased until 30 minutes and then decreased
level of plasma Aβ1-40 (plasma Aβ1-40 and Aβ1-42; [5]): reduced significantly
level of plasma Aβ1-42 (plasma Aβ1-40 and Aβ1-42; [5]): reduced significantly
ratio of plasma Aβ1-42/Aβ1-40 (plasma Aβ1-40 and Aβ1-42; control subject): decrease
plasma Aβ1-42 after the injection (course) (plasma Aβ1-40 and Aβ1-42; control subject): decreased at all the time points
serum Aβ40 level before and after the injection (serum Aβ1-40 and Aβ1-42 [2]): induced the surge
adverse events during the trial or over the next 48 hours [3]: did not have nausea, vomiting, abdominal pain, headache, dizziness and itching
vital signs during the trial [3]: stable vital signs
serum Aβ40 level before and after the injection (serum Aβ1-40 and Aβ1-42 [4]): not in those wild type mice
